Test system: WT-1-specific T cells
Experiment: Specific cell staining / titration on WT-1-specific T cells
Format: cell-based
Conditions: 30× or 100× excess of peptide
From the text: A Y84A variant of the A*02:01 tetramer (shown schematically in FIG. 9A) was produced, digested and subjected to WT-1 peptide exchange as shown in Examples 4 and 5. The amino acid sequence of the Y84A HLA alpha chain is shown in SEQ ID NO: 321. This mutation is known in the art to stabilize binding of the tethered peptide by reducing steric conflict with the peptide linker.

WT1 peptide: A*02:01 tetramers digested and exchanged with WT-1 peptide RMFPNAPYL (SEQ ID NO: 9)
binding to WT-1-specific T cells: strong and specific binding
